The target in the assay is T1, Bcl-xL (human, UniProt Q07817-1 1-233).
T1 construct: human Bcl-xL; The c-Myc tag is told for the SPOT arrays; also called c-Myc-tagged receptor; prosurvival protein
As to the kind of experiment: fluorescence polarisation; direct binding: 10 nM FAM-labeled peptide, receptor serially diluted; 25°C; 20 mM NaPO4, 50 mM NaCl, 1 mM EDTA, 0.001% Triton X, pH 7.8; single-site binding model. To be noted: both partners purified.

As for IIQMIVELLKRVGDQWEEEQSLA (N-terminal fluorescein group (FAM); amidated C-terminus) [c6orf222 BH3-like peptide], the Kd was less than 30 nM.
